In patent publication EP1019392B1, “TRICYCLIC AMIDES USEFUL FOR INHIBITION OF G-PROTEIN FUNCTION AND FOR TREATMENT OF PROLIFERATIVE DISEASES” (SCHERING CORPORATION, priority 1995, dated 1997):
Where two headings read alike, the source gives them in different places.

By UniProt entry, the sequences of proteins in these tests, tags left out.
UniProt Q02293, whole entry: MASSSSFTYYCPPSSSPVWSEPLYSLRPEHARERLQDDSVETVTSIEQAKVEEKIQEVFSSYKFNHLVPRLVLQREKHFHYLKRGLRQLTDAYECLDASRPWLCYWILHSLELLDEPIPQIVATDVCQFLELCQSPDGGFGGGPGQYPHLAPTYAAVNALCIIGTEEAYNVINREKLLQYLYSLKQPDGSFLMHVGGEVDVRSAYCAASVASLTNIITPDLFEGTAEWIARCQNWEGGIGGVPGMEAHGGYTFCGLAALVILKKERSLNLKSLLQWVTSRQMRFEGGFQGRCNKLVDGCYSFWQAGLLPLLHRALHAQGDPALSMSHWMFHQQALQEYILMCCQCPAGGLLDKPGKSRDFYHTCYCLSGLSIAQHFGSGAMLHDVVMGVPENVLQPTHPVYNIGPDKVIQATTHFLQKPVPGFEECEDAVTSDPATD

Target: T1, farnesyl protein transferase (FPT) (Rattus norvegicus, UniProt Q02293+Q04631)
T1 construct: were partially purified from rat brain by ammonium sulfate fractionation followed by Q-Sepharose; from tissue; host or cells: rat brain
Assay: In vitro enzyme assay: inhibition of farnesyl protein transferase (transfer of [3H]farnesyl to Ras-CVLS)
Assay type: biochemical
Method: • 1. In vitro enzyme assays: Inhibition of farnesyl protein transferase and geranylgeranyl protein transferase. […] Human farnesyl protein transferase was also expressed in E. coli, using cDNA clones encoding both the a and b subunits. […] Human farnesyl protein transferase was partially-purified from the soluble protein fraction of E. coli as described above. […] Two forms of val^12-Ha-Ras protein were prepared as substrates for these enzymes, differing in their carboxy terminal sequence. One form terminated in cysteine-valine-leucine-serine (Ras-CVLS) the other in cystein-valine-leucine-leucine (Ras-CVLL). Ras-CVLS is a substrate for the farnesyl protein transferase while Ras-CVLL is a substrate for geranylgeranyl protein transferase I. The cDNAs encoding these proteins were constructed so that the proteins contain an amino-terminal extension of 6 histidine residues. Both proteins were expressed in Escherichia coli and purified using metal chelate affinity chromatography. The radiolabelled isoprenyl pyrophosphate substrates, [^3H]farnesyl pyrophosphate and [^3H]geranylgeranyl pyrophosphate, were purchased from DuPont/New England Nuclear. […] The reaction was allowed to proceed for 30 minutes at room temperature and then stopped with 0.5 ml of 4% sodium dodecyl sulfate (SDS) followed by 0.5 ml of cold 30% TCA. Samples were allowed to sit on ice for 45 minutes and precipitated Ras protein was then collected on GF/C filter paper mats using a Brandel cell harvester. […] Percent inhibition was calculated relative to the DMSO vehicle control. The geranylgeranyl protein transferase I assay was essentially identical to the farnesyl protein transferase assay described above, with two exceptions: [^3H]geranylgeranylpyrophosphate replaced farnesyl pyrophosphate as the isoprenoid donor and Ras-CVLL was the protein acceptor. […] Cell-Based Assay: Transient expression of val^12-Ha-Ras-CVLS and val^12-Ha-Ras-CVLL in COS monkey kidney cells: Effect of farnesyl protein transferase inhibitors on Ras processing and on disordered cell growth induced by transforming Ras. COS monkey kidney cells were transfected by electroporation with the plasmid pSV-SPORT (Gibco/BRL) containing a cDNA insert encoding either Ras-CVLS or Ras-CVLL, leading to transient overexpression of a Ras substrate for either farnesyl protein transferase or geranylgeranyl protein transferase I, respectively (see above). Following electroporation, cells were plated into 6-well tissue culture dishes containing 1.5 ml of Dulbecco's-modified Eagle's media (GIBCO, Inc.) supplemented with 10% fetal calf serum and the appropriate farnesyl protein transferase inhibitors. After 24 hours, media was removed and fresh media containing the appropriate drugs was re-added. 48 hours after electroporation cells were examined under the microscope to monitor disordered cell growth induced by transforming Ras. Cells expressing transforming Ras become more rounded and refractile and overgrow the monolayer, reminiscent of the transformed phenotype. Cells were then photographed, washed twice with 1 ml of cold phosphate-buffered saline (PBS) and removed from the dish by scraping with a rubber policeman into 1 ml of a buffer containing 25 mM Tris, pH 8.0; 1 mM ethylenediamine tetraacetic acid; 1 mM phenylmethylsulfonyl fluoride; […] leupeptin; and 0.1 mM pepstatin. Cells were lysed by homogenization and cell debris was removed by centrifugation at 2000 x g for 10 min. […]

[1] = FPT IC50, Table 1, partially purified rat brain FPT
[2] = Table 1, partially purified rat brain FPT, read-out: FPT IC50

SMILES | IC50 [1] | IC50 [2]
NC(=O)N1CCC(CC(=O)N2CCC(=C3c4ncc(Br)cc4CCc4cc(Cl)cc(Br)c43)CC2)CC1 (racemic) [Example 8] | 21 nM | 
NC(=O)N1CCC(CC(=O)N2CCC(=C3c4ncc(Br)cc4CCc4cc(Cl)cc(Br)c43)CC2)CC1 (single isomer, unassigned) [Example 8A] | > 94 nM | 
NC(=O)N1CCC(CC(=O)N2CCC([C@@H]3c4ncc(Br)cc4CCc4cc(Cl)cc(Br)c43)CC2)CC1 [Example 10A] |  | > 94 nM
NC(=O)N1CCC(CC(=O)N2CCC(C3c4ncc(Br)cc4CCc4cc(Cl)cc(Br)c43)CC2)CC1 (centres unmarked) [Example 10B] | 3 nM | 
NC(=O)N1CCC(CC(=O)N2CCC(C3c4ncc(Br)cc4CCc4cc(Cl)cc(Br)c43)CC2)CC1 (centres unmarked) [Example 10] |  | 1.9 nM
